Assay outcomes from PubChem.
miR-21 reporter – raises the signal of a miR-21 reporter; HeLa miR-21 FLuc reporter, luciferase, 48 h; Potency, µM (series often up to 38.3 µM), inactives show top-dose reporter change, positive = more light; 340,000 tested, under 10 active; active = well fitted rising curve with a large enough effect; inconclusive = small, poorly fitted or top-dose-only effect; inactive = no such curve, though single readings can be large or run the other way;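 also: % of control where 0% means no effect; miR-21 action dims this reporter so a rising signal means less miR-21 action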
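HeLa cells stably expressing CMV-driven firefly luciferase with a downstream miR-21 binding sequence, endogenously expressing miR-21, were treated with titrations (up to about 40uM final) for 48 hours at 37 degree Celsius. Luciferase luminescence was read after lysis.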
PTHR1 ag – PTHR1 (human) receptor agonism. Potency, µM (highest dose often 115 µM), for the others: top-dose activation, actives largely listed as activators. HEK293 GP2 PTHR1 cells, GloSensor cAMP luminescence, 1 h. Q03431. AID 743266. 410,000 compounds, 0.075% hits; also: potency is read from the fitted curve at half-maximal effect; nearly all actives have a fitted effect of over 55% in size
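HEK-293-derived GP2 cells expressing PTHR1 and a GloSensor cAMP reporter, 3,000/well, plated overnight, given luciferin plus IBMX (each 0.5 mM as added) for 1 h at 37 °C, then compound for 1 h at 37 °C. Luminescence was read after 15 min at room temperature.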
ERG Ets-DNA blk – inhibitors of human ERG Ets domain-DNA interaction. Potency, µM (series often up to 76.9 µM), without a hit: top-dose FP activity, negative = inhibition, usual class: inhibitors. fluorescence polarization, His-ERG Ets domain / labelled DNA. P11308. 370,000 compounds, 0.028% hits. AID 624246; active = well fitted inhibition curve with a large enough effect in the polarisation, with a control signal flat; inconclusive = small, poorly fitted or top-dose-only effect, or effect the other way, or a change in a side signal; inactive = no such curve, though single readings can be large or run the other way; the % refers to the polarisation;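 also: polarization taken with two DNA probes labelled with fluorescein and Texas red; potency is read from the fitted curve at half-maximal effect; % of control where 0% means no effect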
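His-tagged ERG Ets domain (1 uM in the protein solution; 300mM KCl, 50mM Tris-HCl, 1mM EDTA, 1mM DTT, pH 7.5) received compound, then a probe mix of 5 nM fluorescein-DNA and 100nM Texas-615-DNA. Fluorescence polarization was read for both dyes.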
Giardia kill – Giardia lamblia killing | Giardia lamblia trophozoite viability | activity change, % at 7.66 µM, hits read low | 340,000 compounds, 0.15% hits; in the data active = activity change below about -80%; inconclusive = between about -30% and that limit;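 also: parasites exposed to compound for two days anaerobically before the ATP read; % is scaled to controls: 0 for no effect and ±100 for the full control effect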
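Luminescent ATP signal served as the viability read-out, measured 15-30 min after adding ATP detection reagent to trophozoites that had been incubated with compounds for 48 hrs at 37 deg C anaerobically at 100 cells/well.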
PINK1 expr mod – changes PINK1 expression; PINK1 immunofluorescence, high-content cytometry, 24 h; Potency, µM (top dose mostly 76.6 µM), for the others: at the highest dose activation (PINK1 increase), most hits filed as activators; 410,000 compounds, 0.2% hits; active = well fitted activation curve with a large enough effect; inconclusive = small, poorly fitted or top-dose-only effect; cell line not stated here; also: potency is read from the fitted curve at half-maximal effect; % of control where 0% means no effect; nearly all actives have a fitted effect of over 65% in size
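Cells are seeded, rested 12 hours, then given compound at five concentrations or DMSO for 24 hours. After fixation, blocking and antibody staining, PINK1 amount and mitochondrial localization are scored; CCCP serves as control.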
12-LOX inh – ALOX12 (human) lipoxygenase inhibition; purified 12hLO, xylenol orange hydroperoxide absorbance; AID 1671190; Potency, µM (series often up to 108 µM), inactives show at the highest dose activity change, negative = inhibition, most hits filed as inhibitors; 580,000 compounds, 1.1% hits; also: potency is read from the fitted curve at half-maximal effect; % is scaled to controls: 0 for no effect and ±100 for the full control effect
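Purified human 12hLO (150 nM final) in 25 mM Hepes, 0.01% Triton X-100, pH 7.0 was preincubated 15 min at room temperature with compound. Then 40 uM arachidonic acid was added, 30 min. Hydroperoxide was read by Fe-XO absorbance ratio 573/405 nm.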
The depositor's hits bear a star; i = inactive; ? = inconclusive; · = no result given; [ ] = dose if it differs, or a comment. Hits are enriched below; roughly 1.3% of the tested compounds scored in any of these assays. Unless noted, calls follow the shape of the dose curve; as a rule, active = well fitted curve in the direction sought with a large enough effect; inconclusive = small, poorly fitted or top-dose-only effect, or another doubt; inactive = no such curve, though single readings can be large; an effect the other way counts as inactive or inconclusive.

Start of the data: the first 4 compounds, ahead of the listing:
1. Cc1ccc(Cn2c(C3CCCN3c3nc(-c4ccc(F)cc4)cs3)nc3cc(C(=O)NCCCO)ccc32)cc1 (stereo not given)
2. Cc1ccc(-c2cc(-c3ccc(F)cc3)c(C#N)c(N)n2)o1
3. Cc1ccc(-c2cc(-c3ccc(C)o3)nc(N)c2C#N)cc1
4. Cc1ccc(-c2cc(-c3ccc(Cl)cc3)c(C#N)c(N)n2)o1

assay / entry | 1 | 2 | 3 | 4
PINK1 expr mod | 7% | 11% | -1% | 9%
ERG Ets-DNA blk | 0% | 8% | 12% | -7%
Giardia kill | -2 | -3 | -9 | -4
PTHR1 ag | -5% | i | i | 16%
miR-21 reporter | · | 4% | 2% | -1%
12-LOX inh | -24% | 7.1µM* | 1µM* | ?

The list itself (from the top)
1. Cc1ccc(Cn2c(C3CCCN3c3nc(-c4ccc(F)cc4)cs3)nc3cc(C(=O)NCCCO)ccc32)cc1 (stereo not given)
2. Cc1ccc(-c2cc(-c3ccc(F)cc3)c(C#N)c(N)n2)o1
3. Cc1ccc(-c2cc(-c3ccc(C)o3)nc(N)c2C#N)cc1
4. Cc1ccc(-c2cc(-c3ccc(Cl)cc3)c(C#N)c(N)n2)o1
5. CC(=O)N1[C@@H]2c3ccc(-c4cccnc4)c(=O)n3C[C@@H]2[C@@H](CO)[C@@H]1C(=O)NCc1ccccc1Cl
6. COC(=O)[C@H]1[C@H](CO)[C@H]2Cn3c(ccc(Br)c3=O)[C@H]2N1Cc1ccccc1Cl
7. Oc1ccccc1/C=N/NC(=S)NCCc1ccccc1
8. CC1(C)C2CC=C(/C=N/NC(=S)NCCc3ccccc3)C1C2 (stereo not given)

assay / entry | 1 | 2 | 3 | 4 | 5 | 6 | 7 | 8
PINK1 expr mod | 7% | 11% | -1% | 9% | · | · | 14% | 7%
ERG Ets-DNA blk | 0% | 8% | 12% | -7% | · | · | -6% | 10%
Giardia kill | -2 | -3 | -9 | -4 | · | · | ? | ?
PTHR1 ag | -5% | i | i | 16% | · | · | -29% | -17%
miR-21 reporter | · | 4% | 2% | -1% | · | · | -11% | -2%
12-LOX inh | -24% | 7.1µM* | 1µM* | ? | -30% | 35µM* | 0% | 45µM*

9. COc1ccc(OC)c(/C=N/NC(=S)NCCc2ccccc2)c1
10. COc1ccc(OC)c(/C=N\NC(=O)CC(=O)NCCc2ccccc2)c1
11. Fc1ccc(NC(=S)NN=Cc2ccccc2Cl)cc1
12. S=C(NCCc1ccccc1)N/N=C/c1cccc(Cl)c1Cl
13. CNC(=S)N/N=C/C1=CCC2CC1C2(C)C (stereo not given)
14. O=C(NCc1ccccc1)C(C(=O)c1ccc(F)cc1)n1ccccc1=O (stereo not given)
15. Cc1cccc(N2NC3(CCCC(C)C3)NC2=S)c1C (stereo not given)
16. CC(C)(C)CC(C)(C)SSc1n[nH]c(=S)s1

assay / entry | 9 | 10 | 11 | 12 | 13 | 14 | 15 | 16
PINK1 expr mod | -1% | 1% | 13% | 6% | 8% | -5% | · | 0%
ERG Ets-DNA blk | -11% | -6% | -11% | -7% | -6% | -6% | · | 4%
Giardia kill | -12 | -9 | -14 | 33 | 9 | -9 | · | -2
PTHR1 ag | -7% | -11% | -11% | i | -10% | i | · | -20%
miR-21 reporter | -10% | 2% | · | -2% | 2% | -1% | · | ·
12-LOX inh | 45µM* | -6% | 50µM* | 50µM* | ? | 0% | 8.9µM* | 35µM*

17. O=C(O)CCCn1c(=S)[nH]c2c(sc3ccc([N+](=O)[O-])cc32)c1=O
18. CC1CCN(CCCn2c(=S)[nH]c3c(sc4ccc([N+](=O)[O-])cc43)c2=O)CC1
19. COc1cccc(CC(=O)NCC2(N3CCCCC3)CCCCC2)c1
20. CC(=O)NC1(C)CCCN(Cc2cccc(-c3cccc(F)c3)c2)C1 (stereo not given)
21. CC(=O)NC1(C)CCN(Cc2cnc(-c3cccc(F)c3)s2)CC1
22. COc1cc(CNc2cccc3[nH]c(C(F)(F)F)nc23)cc(OC)c1
23. O=C(Nc1ccc(C23CC4CC(CC(C4)C2)C3)cc1)c1ccc(Br)cc1
24. CCOC(=O)C1CCN(Cc2ccc(O)c3ncccc23)CC1

assay / entry | 17 | 18 | 19 | 20 | 21 | 22 | 23 | 24
PINK1 expr mod | 0% | 1% | -2% | · | · | 32µM* | · | 25µM*
ERG Ets-DNA blk | 0% | 11% | -2% | · | · | 15% | · | -7%
Giardia kill | 3 | -9 | -16 | · | · | -15 | · | -22
PTHR1 ag | 23% | -18% | i | · | · | -83% | · | -2%[57.5 µM]
miR-21 reporter | 2% | -11% | -4% | · | · | 4% | · | ?
12-LOX inh | 18µM* | ? | -17% | -1%[176 µM] | 50µM* | -5% | -2% | ?

25. CCOC(=O)C1CCN(Cc2ccccc2C(F)(F)F)CC1
26. COc1ccccc1-c1cnc(Nc2cccnc2)c2c1CCO2
27. COc1cc(/C=N/NC(=S)Nc2cccc(Cl)c2C)ccc1OCC(=O)N1CC(C)OC(C)C1 (stereo not given)
28. CCNC(=O)/C(=C\c1ccccc1)NC(=O)/C=C/c1ccccc1
29. CCCCCC(C)NCc1sccc1C (stereo not given)
30. CCC(CO)NCc1sccc1C (stereo not given)
31. Cn1cnc2ccc([N+](=O)[O-])cc2c1=O
32. O=C(O)c1ccc(C2NCC(c3ccccc3Cl)c3c2[nH]c2ccccc32)cc1 (stereo not given)

assay / entry | 25 | 26 | 27 | 28 | 29 | 30 | 31 | 32
PINK1 expr mod | 9%[38.3 µM] | · | 2% | 3% | · | -1% | -1% | 0%
ERG Ets-DNA blk | -5% | · | 4% | -11% | · | -1% | -4% | -5%
Giardia kill | -10 | · | 9 | -7 | · | 12 | -5 | 2
PTHR1 ag | i | · | -3% | i | · | i | -23% | -3%
miR-21 reporter | -3% | · | 20% | -4% | · | -3% | 3% | -10%
12-LOX inh | ? | 64%[176 µM] | 45µM* | 6% | 0.45µM* | 319% | -13% | -11%

33. COc1cc(C2NCC(c3ccc(Cl)cc3Cl)c3c2[nH]c2ccccc32)cc(OC)c1OC (stereo not given)
34. CCOCCOC(=O)c1nc2ccccc2nc1Nc1ccc(Cl)cc1
35. CCCNc1nc2ccccc2nc1C(=O)Nc1ccc(Cl)cc1
36. Cc1c(C)c([N+](=O)[O-])c(C)c(C)c1N
37. CSc1cccc(N2CC(C(=O)Nc3cccc(S(=O)(=O)N4CCCC4)c3)CC2=O)c1 (stereo not given)
38. Cc1ccc(Nc2ccc3nonc3c2[N+](=O)[O-])cc1
39. Cc1ccc(Nc2ccc([N+](=O)[O-])nc2[N+](=O)[O-])cc1
40. CCN(C1CCOCC1)C1CN(C(=O)C(C)C)C1

assay / entry | 33 | 34 | 35 | 36 | 37 | 38 | 39 | 40
PINK1 expr mod | 3% | · | · | 2% | -1% | -1% | 2%[38.3 µM] | ·
ERG Ets-DNA blk | 15% | · | · | · | -8% | -6% | 1% | ·
Giardia kill | 10 | · | · | 20 | 4 | 10 | -96* | ·
PTHR1 ag | 23% | · | · | i | -24% | i | i | ·
miR-21 reporter | 19% | · | · | · | · | -2% | 7% | ·
12-LOX inh | 28µM* | 10µM* | -11% | 1% | 28µM* | -4% | -6% | -8%

41. COc1cccc(OC)c1OCCNCCO
42. C=CCc1cccc(OC)c1OCCOCCNCCO
43. CC(=O)NC1=NN(C(C)=O)C2(S1)C(=O)N(CCOc1ccccc1C)c1ccc(Cl)cc12 (stereo not given)
44. CC(O)/C=C/c1cccc[n+]1C (stereo not given)
45. O=C(NCc1ccccc1)N1CCc2c(sc3c2CCCC3)C1c1ccccc1 (stereo not given)
46. CCOc1ccc(-n2c(=S)sc3c(=O)[nH]c(SCC(=O)N4CCC(C)CC4)nc32)cc1
47. CCOc1ccc(NC(=O)CN(C)C(=O)c2cc3c(s2)CCCCC3)cc1OCC

assay / entry | 41 | 42 | 43 | 44 | 45 | 46 | 47
PINK1 expr mod | -1% | -1% | · | · | 5% | -5%[38.3 µM] | 3%
ERG Ets-DNA blk | -14% | 5% | · | · | 1% | · | -8%
Giardia kill | -8 | -7 | · | -22 | · | -16 | -11
PTHR1 ag | i | -5%[57.5 µM] | · | 0%[57.5 µM] | i | -33% | i
miR-21 reporter | -2% | -6% | · | 0% | 26% | -5% | ·
12-LOX inh | 9% | 2.2µM* | 0% | 18µM* | -9% | 45µM* | 1%
